US20030181447A1, “3-(Diarylmethylene)-8-azabicyclo[3.2.1]octane derivatives” (priority 2001, published 2003)

Target: δ-opioid receptor (Rattus norvegicus, UniProt P33533)

SMILES | Ki [nM]
CC(C)N(C(=O)c1ccc(C(=C2CC3CCC(C2)N3CCc2ccccc2)c2ccccc2)cc1)C(C)C | 49
C=C(C)CN(CC)C(=O)c1ccc(C(=C2CC3CCC(C2)N3CCc2ccccc2)c2ccccc2)cc1 | 2.9
O=C(NCCc1cnc[nH]1)c1ccc(C(=C2CC3CCC(C2)N3CCc2ccccc2)c2ccccc2)cc1 | 178
CN(C)CCCNC(=O)c1ccc(C(=C2CC3CCC(C2)N3CCc2ccccc2)c2ccccc2)cc1 | 404
